Only some compounds are listed: those with a hit (about 1.8% of all), similar ones and a draw of the others.
Yeast UUG start: modulators of yeast start codon fidelity, primary screen, whole organism, S. cerevisiae, single point, plate reader; S. cerevisiae UUG-firefly luciferase reporter, luminescence/redox ratio; activity score, % at 18.7 µM; actives 0.13% (n = 350,000); AID 602363, 2012;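 active = replicate mean at a twofold rise or more, about +100% in these data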;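 also: firefly luciferase made from a UUG start codon reports start codon fidelity; reporter light over untreated wells divided by growth signal over untreated wells; some hits fall short of that in this replicate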
RAD54 branch: inhibitors of human RAD54 branch migration; Q92698; RAD54 Holliday junction branch migration, FAM/BHQ fluorescence; inhibition, % at 10.4 µM; 360,000 compounds, 0.14% hits; AID 602329;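 active = mean normalized replicate activity at least 40 and at least half of replicates scoring 40 or more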;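 note: 0% = median of neutral control wells and 100% = median of positive control wells; inhibitors cause a drop in the FAM fluorescence signal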
RAD52 inh: blocks human RAD52 DNA annealing. P43351. recombinant RAD52 DNA annealing, FRET fluorescence. inhibition, % at 18.7 µM. 360,000 compounds, 0.46% hits;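 active = every replicate showing at least 50% inhibition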
E-selectin induc: E-selectin induction on HUVECs. 260,000 compounds, 0.37% hits. activation, % at 7.58 µM. HUVEC E-selectin immunofluorescence imaging; normalized: neutral wells 0, TNF-alpha wells 100. AID 686992;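 active = mean E-selectin-positive cell signal at least 10% of the positive control, reached in at least 60% of replicates, without over 20% cell loss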
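Test system – human umbilical vein endothelial cells (HUVEC), E-selectin induction · Input – 3,000 HUVEC seeded per well · Buffer or medium – EGM-2, gelatin · Compound dosing – single-point compound dose · Detection – immunofluorescence imaging · Measure – percent E-selectin-positive cells · Controls – TNF-alpha high, DMSO low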
AF4-AF9 inh: MLL-AF4/AF9 protein interaction inhibition; P42568; AlphaScreen, biotin-AF4 peptide binding to FLAG-AF9; inhibition, % at 10 µM; 350,000 compounds, 0.47% hits; AID 651704;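 active = every replicate reaching a set inhibition limit, whatever the replicate mean, cut at about 25% in these data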;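 note: 0% = plate neutral control median and 100% = total signal loss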
SIRT5 block: sirtuin-5 (human) deacylase inhibition. Q9NXA8. Purified SirT5, succinyl-peptide AMC, trypsin-coupled fluorescence. inhibition, % at 15 µM. 330,000 compounds, 1.1% hits. AID 652115; in the data active = inhibition above about 15%
An asterisk follows results filed as active; nt = no result given; ! = a repeat was not active.

1. O=S(=O)(N[C@H]1CC[C@H](CCn2cc(-c3cccc(F)c3)nn2)O[C@H]1CO)c1ccc(F)cc1
2. Cc1ccc(S(=O)(=O)N[C@@H]2CC[C@@H](CCn3cc(C(C)C)nn3)O[C@@H]2CO)cc1
3. Cc1ccc(S(=O)(=O)N[C@H]2CC[C@@H](CCn3cc(C(C)C)nn3)O[C@H]2CO)cc1
4. CC(C)c1cn(CC[C@H]2CC[C@H](NS(=O)(=O)c3ccc(F)cc3)[C@@H](CO)O2)nn1
5. Cc1ccc(-c2nc3ccccc3c(=O)o2)cc1
6. Cc1ccc2nc(-c3ccccc3)oc(=O)c2c1
7. COC(=O)C(C(=O)OC)c1ccccc1NS(=O)(=O)c1ccc(C)cc1
8. COc1cc(NS(=O)(=O)c2ccc(C)cc2)c2c(c1N)C(=O)c1ccccc1C2=O

Screen / compound no.	1	2	3	4	5	6	7	8
E-selectin induc	-1	-1	-1	0	nt	0	4	127*
RAD54 branch	-16	-9	-2	1	6	0	nt	10
AF4-AF9 inh	-2	-1	0	-2	-4	-3	-2	-1
SIRT5 block	25*	4	25*	20*	16*	-5	-2	-6
Yeast UUG start	-17	-2	-3	-5	-18	-9	nt	58
RAD52 inh	-8	4	-7	-4	-14	-4	-8	-33

9. CC(C)CC(NC(=O)OC(C)(C)C)c1cn([C@@H](CCCCNC(=O)OC(C)(C)C)C(=O)N2CCN(C(=O)OC(C)(C)C)CC2)nn1 (stereo not given in full)
10. CC[C@@H](C)C(NC(=O)OC(C)(C)C)c1cn([C@@H](CCCCNC(=O)OC(C)(C)C)C(=O)N2CCN(C(=O)OC(C)(C)C)CC2)nn1 (stereo not given in full)
11. O=C(Nc1ccc(F)cc1)C(Sc1nnc2ccccn12)c1ccccc1 (stereo not given)
12. COc1cc(NC(=O)COC(=O)CNC(=O)c2ccc(C)cc2)c(C)cc1[N+](=O)[O-]
13. Cc1ccc(S(=O)(=O)N(C)C[C@@H]2Oc3c(NC(=O)Nc4ccc5c(c4)OCO5)cccc3C(=O)N([C@H](C)CO)C[C@@H]2C)cc1
14. C[C@H](CO)N1C[C@H](C)[C@@H](CN(C)S(=O)(=O)c2ccc(F)cc2)Oc2c(NC(=O)Nc3ccc4c(c3)OCO4)cccc2C1=O
15. C[C@@H]1CN([C@@H](C)CO)C(=O)c2cccc(NC(=O)Nc3ccc4c(c3)OCO4)c2O[C@H]1CN(C)S(=O)(=O)c1ccc(F)cc1
16. Cc1ccc(S(=O)(=O)N(C)C[C@H]2Oc3c(NC(=O)Nc4ccc5c(c4)OCO5)cccc3C(=O)N([C@H](C)CO)C[C@H]2C)cc1

Screen / compound no.	9	10	11	12	13	14	15	16
E-selectin induc	0	1	nt	0	0	0	55*	0
RAD54 branch	0	-14	nt	nt	-7	-1	-7	-4
AF4-AF9 inh	nt	-3	49*	-2	-2	10	2	-7
SIRT5 block	nt	16*	1	20*	15*	4	-6	12
Yeast UUG start	26	34	nt	nt	-11	4	2	-5
RAD52 inh	nt	12	-8	-3	17	-14	-4	10

17. C[C@@H]1CN([C@H](C)CO)C(=O)Cc2cc(NC(=O)Cc3cn(C)c4ccccc34)ccc2O[C@@H]1CN(C)Cc1ccc(Cl)c(Cl)c1
18. C#Cc1ccc([C@H]2C=C(C(=O)OCC=C)O[C@@H](OCc3ccc(CO)cc3)C2)cc1
19. C=CCOC(=O)C1=C[C@@H](c2ccc(Br)cc2)C[C@@H](OCc2ccc(CO)cc2)O1
20. C[C@H](CO)N1C[C@H](C)[C@@H](CN(C)S(=O)(=O)c2cn(C)cn2)Oc2ccc(NC(=O)Nc3ccc(F)cc3)cc2CC1=O
21. C[C@H](CO)N1C[C@H](C)[C@@H](CN(C)S(=O)(=O)c2cn(C)cn2)Oc2ccc(NC(=O)Nc3ccccc3)cc2CC1=O
22. C[C@@H]1CN([C@H](C)CO)C(=O)Cc2cc(NC(=O)Nc3ccc(F)cc3)ccc2O[C@@H]1CN(C)S(=O)(=O)c1cn(C)cn1
23. Cc1noc(C)c1S(=O)(=O)N(C)C[C@H]1Oc2ccc(NC(=O)Nc3ccc(F)cc3)cc2CC(=O)N([C@H](C)CO)C[C@@H]1C
24. CCc1ccc(OCC(=O)Nc2ncn[nH]2)cc1

Screen / compound no.	17	18	19	20	21	22	23	24
E-selectin induc	-5	-1	0	61*	0	85*	64*	0
RAD54 branch	2	-7	15	nt	10	nt	-1	0
AF4-AF9 inh	4	nt	0	nt	-1	nt	-3	-3
SIRT5 block	-2	nt	26*!	nt	0	nt	4	-1
Yeast UUG start	5	8	-14	nt	14	nt	-14	-4
RAD52 inh	2	-48	-10	nt	6	nt	8	5

25. O=C(COc1ccccc1)Nc1ncn[nH]1
26. O=C(Nc1ccccc1F)N1CC(=O)N2[C@H](CO)[C@@H](c3ccc(C#CC4CCCC4)cc3)[C@@H]2C1
27. O=C(Nc1cc(F)ccc1F)N1CC(=O)N2[C@@H](CO)[C@H](c3ccc(C#CC4CCCCC4)cc3)[C@@H]2C1
28. O=C(Nc1ccccc1F)N1CC(=O)N2[C@H](C1)[C@@H](c1ccc(C#CC3CCCC3)cc1)[C@@H]2CO
29. O=C(Nc1cc(F)ccc1F)N1CC(=O)N2[C@H](C1)[C@H](c1ccc(C#CC3CCCCC3)cc1)[C@@H]2CO
30. O=C(Nc1cc(F)ccc1F)N1CC(=O)N2[C@H](CO)[C@@H](c3ccc(C#CC4CCCCC4)cc3)[C@H]2C1
31. CC(C)NC(=O)Nc1ccc2c(c1)C(=O)N([C@@H](C)CO)C[C@H](C)[C@@H](CN(C)C(=O)NC(C)C)O2
32. O=C(C[C@@H]1CC[C@H](NC(=O)c2ccc3c(c2)OCO3)[C@@H](CO)O1)NC1Cc2ccccc2C1

Screen / compound no.	25	26	27	28	29	30	31	32
E-selectin induc	0	0	-1	0	0	-1	0	0
RAD54 branch	-1	nt	nt	nt	nt	nt	3	6
AF4-AF9 inh	-7	6	6	7	1	4	-3	-1
SIRT5 block	30*	15	18*	19*	18*	10	-2	-6
Yeast UUG start	-22	nt	nt	nt	nt	nt	-6	-4
RAD52 inh	7	13	11	1	-15	-1	2	-8

33. O=C1NC(=S)S/C1=C/c1ccc(OC(=O)c2ccco2)cc1
34. CCOc1cc(/C=C2/SC(=S)NC2=O)ccc1OC(=O)c1ccco1
35. COc1ccc(Nc2nc(N)c([N+](=O)[O-])c(N3CCOCC3)n2)cc1
36. CN(C)c1ccc(Nc2nc(N)c([N+](=O)[O-])c(N3CCOCC3)n2)cc1
37. C=C1N(C)c2cc([N+](=O)[O-])c(N)cc2C1(C)C
38. CC(=O)Nc1ccc(NC(=O)C2CCCN2C(=O)Nc2ccccc2[N+](=O)[O-])cc1 (stereo not given)
39. O=C1OC(c2ccccc2)=C/C1=C/N1CCOCC1
40. O=C1SC(c2ccccc2)=C/C1=C\N1CCCCC1
41. O=C(C[C@@H]1CC[C@@H](NC(=O)Cc2ccccn2)[C@@H](CO)O1)NCCCN1CCOCC1

Screen / compound no.	33	34	35	36	37	38	39	40	41
E-selectin induc	nt	nt	0	-2	nt	4	nt	nt	0
RAD54 branch	-10	nt	0	nt	nt	8	-3	0	-8
AF4-AF9 inh	-1	1	7	30*	47*	-1	5	30*	-1
SIRT5 block	81*	-4	-1	2	3	21*	0	-5	15*
Yeast UUG start	-7	nt	-11	nt	nt	-9	-3	-11	-9
RAD52 inh	-40	-32	-5	19	0	-5	-35	-8	-1
